pIC50: −log10 of the molar value. This is a selection: effects in other tests are not listed, and their absence says nothing.
Molecular target: Epidermal growth factor receptor (Homo sapiens, UniProt P00533)
Conditions: pH 7.6

## N#CC(C#N)=Cc1cc2c(cc1[N+](=O)[O-])OCO2
  pIC50: 3.25

Reference: BindingDB's records for 2552117 (1989)
